# Yeast mating assay B: variants of the scFv Ab-14

The measurements come from Li et al. 2023 (doi:10.1038/s41467-023-39022-2) through the FLAb antibody collection.

Antigen: PDVDLGDISGINAS, a 14-residue peptide of the SARS-CoV-2 spike HR2 region.

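The variants were designed computationally from a first round of random CDR variants and then made and measured. Group labels follow the data file (Ctrl: baseline library sampled from a position-specific scoring matrix, with some repeated check sequences; Rand: our label for a block that the file lists under HC and that is probably the random mutants of the ten best first-round binders; GP: Gaussian process model; GPLM: also part of the Gaussian process libraries; HC: hill climbing; Gen: genetic algorithm; Gibbs: Gibbs sampling; a sequence that several methods proposed may carry one label only). Affinity was read by AlphaSeq, a pooled yeast mating assay with surface-displayed partners. Binding brings cells together so that they mate, and sequencing counts the barcode pairs among the diploids. Scores were corrected for input abundance and mapped to Kd with protein pairs of known affinity run in the same pool. The assay was run in six technical replicates.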

Parent scFv Ab-14: VH joined to VL by the linker GGGGSGGGGSGGGGS. Changes lie in the heavy chain CDRs alone.
VH: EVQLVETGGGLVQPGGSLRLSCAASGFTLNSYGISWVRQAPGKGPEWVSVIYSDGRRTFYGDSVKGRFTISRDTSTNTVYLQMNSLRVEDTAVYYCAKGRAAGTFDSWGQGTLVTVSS
VL: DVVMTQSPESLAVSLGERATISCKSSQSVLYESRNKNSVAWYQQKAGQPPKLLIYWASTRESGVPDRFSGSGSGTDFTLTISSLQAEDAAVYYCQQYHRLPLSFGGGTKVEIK

Variants are written as CDR1, CDR2 and CDR3 of the heavy chain (limits as in the source). Parent: GFTLNSYGIS, VIYSDGRRTFYGDSVK, GRAAGTFDS. Variants here have at most six changes. The Kd shown is the geometric mean over detected replicates; a lower Kd is a better binder. An entry "nd" has no value in the source: the pair was not observed among the diploids in any replicate. This suggests poor binding but is not conclusive. Values of this round are not directly comparable with the first-round values of the same sequences.

Variant GFTLNEYGIS / VIYSDGHRTFYSDSVK / GQAAGTFDS [GP_HC] gave 1.5 nM (6 of 6 replicates).
Variant HFDLNSYGIS / VIYSDGRRTFYADSVK / GQAAGTFDS [GPLM_Gen] gave 3.6 nM (6 of 6 replicates).
Variant GFPLNSYGIS / VIYSDGVRTFYGDSVK / GRAAGTFDS [Ctrl] gave 380 nM (5 of 6 replicates).
Variant GFSLNDYGIS / VIYSDGRRTFYADSVK / GRTAGTFDK [GPLM_Gen] gave 370 pM (6 of 6 replicates).
Variant GFSLNSYGIS / VIYSDGRRTFYIDAVK / GRQAGTFDS [GP_Gibbs] gave 350 nM (3 of 6 replicates).
Variant GFTLNSYGIS / VIYSDGRRTFYSDSVK / GMAGGTFDL [GPLM_HC] gave 14 nM (6 of 6 replicates).
Variant GFTLNSYGIS / VIYSDGQRTFYSDSVK / GRAAVTFDS [GP_HC] gave nd (0 of 6 replicates).
Variant GFTLNEYGIS / VIYSDGRRTFYSDSVK / GRAAGTFDQ [GP_HC] gave 3.2 nM (6 of 6 replicates).
Variant LFTLNSYGIS / VIYSDGRRTMYGDEVK / GSAAGTFDS [Ctrl] gave nd (0 of 6 replicates).
Variant GNTLNKYGQS / VIYSDGRRTFYDDSVK / GQLAGTFDS [Rand] gave nd (0 of 6 replicates).
Variant GFYLNDYGIS / VIYSDGRRTMYGDSVK / GRAAGTFDS [GP_HC] gave nd (0 of 6 replicates).
Variant GFSLNSYGIS / VIYSDGRRTFYDDSVK / GNAAGTFDS [GPLM_Gen] gave 1.5 nM (6 of 6 replicates).
Variant GFSLNSYGIS / VIYSDGRRTFYGDRVK / GEAAGTFDK [GP_Gen] gave 13 nM (6 of 6 replicates).
Variant GFTLNGYGIS / VIYSSGARTFQGDSVK / GRAALTFIS [Rand] gave nd (0 of 6 replicates).
Variant GFTLNSYGIS / VIYADGRRTFYGDSVK / GQAAGTFDK [GPLM_Gen] gave 6.1 nM (6 of 6 replicates).
Variant GFDLNWYGIS / VIYSDGRRTFYADSVK / GREAGTFDS [GP_Gibbs] gave 2.9 nM (6 of 6 replicates).
Variant GFQLNSYGIS / VIYSDGRRTFYSDSVK / RRAAGTFVS [Ctrl] gave 4.0 nM (1 of 6 replicates).
Variant GFTLNSYGIS / VIYADGRRTFYGDSVK / GRLADTFDV [Ctrl] gave nd (0 of 6 replicates).
Variant GFTLDQYRIS / VIYSDGRRTFYSDSVK / GRAAGDFDS [Rand] gave nd (0 of 6 replicates).
Variant GFDLNSYGIS / VIYSDGRRTFYADSVK / GQAAGKFDS [GPLM_Gen] gave 10 nM (4 of 6 replicates).
Variant GFDLNTYGIS / VIYSDGRRTFYADSVK / GQAAGTFDS [GPLM_Gen] gave 670 pM (6 of 6 replicates).
Variant GFGLNEYGIS / VIYSDGRRTFYSDAVK / GRTAGTFDS [GP_HC] gave 360 pM (6 of 6 replicates).
Variant GFDLNSYGIS / VIYSDGRRTFYVDRVK / GQAAGTFDS [GP_Gibbs] gave 7.0 µM (1 of 6 replicates).
Variant GFTLNSYGIS / VIYSDGRRTFYGDSFK / GRNAGTFDM [Ctrl] gave nd (0 of 6 replicates).
Variant GFTLNSYSIS / VIYSDGRRTFYSDSVK / GYWGGTFDT [Ctrl] gave nd (0 of 6 replicates).
Variant GMDLNSYGIS / VIYSDGRRTFYGDSVK / GRAAGWFNS [Rand] gave nd (0 of 6 replicates).
Variant GFSLNSYGIS / VIYSDGRRTFYADSVK / GWTAGTFDS [GPLM_Gen] gave 1.7 nM (6 of 6 replicates).
Variant GFTLNSYGIS / VIYSDGFRTFYGDSVK / GRAAGTFDV [Ctrl] gave 78 nM (1 of 6 replicates).
Variant GFTLNSYGIS / VIYSDGRRTFYNDSVK / GQLAGTFDS [GPLM_HC] gave nd (0 of 6 replicates).
Variant MFDLNSYGIS / VIYSDGRRTAYGDSVK / GRNAGTFDS [GP_Gen] gave 610 pM (6 of 6 replicates).
Variant GFTLNSYGIS / VIYADGRRTFYGDSVK / GQAAGTFSS [GP_HC] gave 160 nM (6 of 6 replicates).
Variant GFELNSYGIS / VIYSDGRRTFYADSVK / GKTAGTFDW [GP_Gibbs] gave 11 nM (3 of 6 replicates).
Variant GFTLNEYGIS / VIYSDGRRTFYGDSVS / GRVAGTFDS [Ctrl] gave 3.5 nM (6 of 6 replicates).
Variant GFTLNSYGIS / VIYSDGKRTFYGDDVK / GRVAGTFDK [GP_Gibbs] gave 13 nM (5 of 6 replicates).
Variant GFTLNSYGIS / VIYSDGLRTFYIDSVK / GRWASTFDS [Ctrl] gave nd (0 of 6 replicates).
Variant GFSLNQYGIS / VIYSDGRRTFYSDSVK / GQDAGTFDS [GP_HC] gave 4.3 nM (5 of 6 replicates).

As a blank, each scFv also met three strains without target: over all heavy chain designs, 1% of these pairings were detected, typically at 120 nM and seldom below 7.0 nM. The authors' rule: three or more of the six replicates give a measured affinity, fewer mean a poor binder. The parent sequence was in this pool as ten entries: three were never detected, three once, and four in most replicates, with averages from 2.2 nM to 240 nM.